Data set [1] deals with Lewis Lung Carcinoma. Conditions: mouse, in vivo; for Highest non-toxic dosage: ip.
The conditions of data set [2]: lyophilized, −23° C.
Data set [3] deals with mice. Conditions: in vivo; for Cumulative Mortality Total: both.
The test system of data set [4] is 16/C Mammary Tumor.
Setting [5] is: female, CD-1 (Crl: CD-1(1CR) BR), mouse.
Setting [6] is: male, CD-1 (Crl: CD-1(1CR) BR), mouse.

Where two headings read alike, the source gives them in different places.

Regarding `O=P(O)(NCCCl)NCCCl` [IPM, N,N′-di(2-chloroethyl)phosphorodiamidic acid], in data set [1], the Log kill total is on record as greater than 2.1 log10 and the Highest non-toxic dosage is recorded as 100 mg kg^−1/dose. In addition, in data set [2], the “purity on storage, 0 months” value was 97%; the “purity on storage, 1 months” value amounted to 88%; the “purity on storage, 3 months” value was 70%. Further, the “Cumulative Mortality Total” value in data set [3] (CD-1 (Crl: CD-1(1CR) BR), mouse) is 5/10. For the same compound, the “Cumulative Mortality Total” value in data set [3] (Crl: CD-1(1CR) BR, mouse) was 5 of 10. Further, in data set [3] (setting [5]), the “Mortality Study Day 9 F” value turned out to be 0, the “Mortality Study Day 10 F” value stood at 0 and the “Mortality Study Day 11 F” value is recorded as 0. In data set [3] (female, CD-1, mouse), the “Mortality Study Day 1 to 5 F” value amounted to 0, the “Mortality Study Day 6 F” value came to 1, the “Mortality Study Day 7 F” value was 1 and the “Mortality Study Day 12 to 14 F” value was 0. For the same compound, the “Mortality Study Day 8 F” value in data set [3] (female, Crl: CD-1(1CR) BR, mouse) stood at 2. In addition, in data set [3] (setting [6]), the “Mortality Study Day 1 to 5 M” value worked out at 0, the “Mortality Study Day 10 M” value was determined as 0, the “Mortality Study Day 11 M” value was 1 and the “Mortality Study Day 12 to 14 M” value stood at 0. In data set [3] (male, CD-1, mouse), the “Cumulative Mortality M” value was 1/5, the “Mortality Study Day 6 M” value was 0 and the “Mortality Study Day 7 M” value is listed as 0. Also, in data set [3] (male, Crl: CD-1(1CR) BR, mouse), the “Mortality Study Day 8 M” value is recorded as 0 and the “Mortality Study Day 9 M” value is reported as 0. In data set [3] (mouse, iv), the “sex difference in toxicity” value is reported as “greater toxicity in females than males”.
Regarding `O=P1(N(CCCl)CCCl)NCCCO1` (stereo not shown) [CPA, cyclophosphamide], in data set [1], the Log kill total was greater than 6.8 log10 and the Highest non-toxic dosage worked out at 200 mg kg^−1/dose. For the same compound, the “Days Delay (T − C)” value in data set [4] (30 mg/kg IP Q 1dx 4 day 7) was determined as 0.4 days. In addition, the “Days Delay (T − C)” value in data set [4] (50 mg/kg IP Q 1dx 4 day 7) came out at 4.0 days.
In the case of `O=P1(NCCCl)OCCCN1CCCl` (stereo not shown) [Ifos, Ifosfamide], in data set [1], the Log kill total is greater than 4.5 log10 and the Highest non-toxic dosage worked out at 300 mg kg^−1/dose.
